Series [1] has as its target red blood cell cholinesterase (i.e., AChE) (Homo sapiens, UniProt P22303). The settings on record: humans, one 30 mg tablet every 8 hours; cited from earlier work.
Another series deals with mouse blood AChE (Mus musculus, UniProt P21836). Briefly: Radiometric AChE assay, in-vitro inhibition by free PB and CNC-PB. The settings on record: all time-points.

Amino acid sequences for entries named in this document (tags omitted). A change or cut given only in a name is not applied to a line headed by its entry. Residues count along the entry.
UniProt P22303: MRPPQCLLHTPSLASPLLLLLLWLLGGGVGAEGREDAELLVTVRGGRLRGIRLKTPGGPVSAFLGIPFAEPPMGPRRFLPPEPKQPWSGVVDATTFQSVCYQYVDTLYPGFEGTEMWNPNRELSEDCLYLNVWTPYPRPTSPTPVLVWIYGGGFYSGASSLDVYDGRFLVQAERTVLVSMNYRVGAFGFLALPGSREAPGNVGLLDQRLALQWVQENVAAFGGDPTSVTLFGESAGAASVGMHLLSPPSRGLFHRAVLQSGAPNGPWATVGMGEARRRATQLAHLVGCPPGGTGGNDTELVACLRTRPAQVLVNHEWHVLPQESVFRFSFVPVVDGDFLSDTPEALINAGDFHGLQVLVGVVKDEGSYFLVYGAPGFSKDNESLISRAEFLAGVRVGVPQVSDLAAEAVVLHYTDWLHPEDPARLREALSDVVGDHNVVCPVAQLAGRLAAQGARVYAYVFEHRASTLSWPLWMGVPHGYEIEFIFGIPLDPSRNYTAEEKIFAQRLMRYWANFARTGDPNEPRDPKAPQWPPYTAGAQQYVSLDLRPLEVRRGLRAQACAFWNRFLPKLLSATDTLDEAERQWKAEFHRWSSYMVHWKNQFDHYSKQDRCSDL
UniProt P21836, 32-614 limits assumed: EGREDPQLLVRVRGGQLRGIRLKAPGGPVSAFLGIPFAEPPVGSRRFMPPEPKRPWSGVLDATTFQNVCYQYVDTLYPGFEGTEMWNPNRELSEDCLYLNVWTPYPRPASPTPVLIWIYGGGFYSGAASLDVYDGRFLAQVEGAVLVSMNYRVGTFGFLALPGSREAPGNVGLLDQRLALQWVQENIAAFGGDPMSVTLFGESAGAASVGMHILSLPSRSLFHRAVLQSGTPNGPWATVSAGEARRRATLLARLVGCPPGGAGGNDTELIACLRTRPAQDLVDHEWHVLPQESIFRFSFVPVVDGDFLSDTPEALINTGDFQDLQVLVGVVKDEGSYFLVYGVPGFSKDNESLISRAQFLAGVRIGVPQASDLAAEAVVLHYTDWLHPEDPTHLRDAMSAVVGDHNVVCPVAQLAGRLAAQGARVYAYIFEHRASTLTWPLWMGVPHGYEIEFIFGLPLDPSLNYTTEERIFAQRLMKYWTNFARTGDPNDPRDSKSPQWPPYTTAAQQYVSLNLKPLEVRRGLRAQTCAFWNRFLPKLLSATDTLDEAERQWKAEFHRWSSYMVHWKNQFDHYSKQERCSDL

Read-outs that look alike come from different tables or passages of the source.

For `CN(C)C(=O)Oc1ccc[n+](C)c1`, the functional toxicity score was determined as 3 with male CD1 mice (20 mg/kg, 45 min and 2-hour time-points); 3 with male CD1 mice (39.5 mg/kg, around 30 minutes after dosing). Moreover, the “functional signs of toxicity” value with male CD1 mice (20 mg/kg, by 2.5 hours after dosing) is reported as “no obvious functional signs”. Besides, in the series on male CD1 mice (39.5 mg/kg, at 3-4 hours), the “functional toxicity score (peak)” value is recorded as 4. Moreover, the time of death with male CD1 mice (39.5 mg/kg, one mouse) is 270 min; in the series on male CD1 mice (51.3 mg/kg, one mouse), “about 50 minutes”. Further, in the series on male CD1 mice (112.7 mg/kg, one mouse), the toxicity outcome is “severe signs and death within one minute”. Besides, the “MTD (maximum tolerated, non-lethal dose)” value with male CD1 mice (mice, gavage, observed to 24 hours) is recorded as 20 mg/kg. Further, the “inhibition of red blood cell cholinesterase” value in series [1] was 20-40%. The “AChE activity compared to PBS” value on mouse blood AChE is reported as “lower”.

The record behind these values is patent publication US11857632B1, “Nanocellulose as an embedding matrix and applications thereof” (dated 2024).
